pIC50: −log10 of the molar value.
Columns and labels:
[1] = target: integrin α5β1 on human erythroleukemia K562 cells (human) (UniProt P08648); assay: cell adhesion inhibition: K562 cells to immobilized fibronectin
[2] = target: integrin αIIbβ3 on CHO cells (CHO-αIIbβ3) (UniProt P08514); assay: cell adhesion inhibition: CHO-αIIbβ3 cells to immobilized fibrinogen

rhodostomin showed a pIC50 [1] of 6.59 and a pIC50 [2] of 7.28.

Source: patent US20200164114A1
